Target: Human NK1 Receptor (Homo sapiens, UniProt P25103)
Test: In Vitro Human NK1 Receptor Binding Assay ([125I]Bolton-Hunter substance P displacement, IM9 cells)
Settings: read-out: IC50 (nM) hNK1, Table 5
Method: They have been evaluated in an NK1-receptor binding assay which is described below.
Human lymphoma IM9 cells were grown in RPMI 1640 culture medium supplemented with 10% fetal calf serum and 2 mM glutamine and maintained under an atmosphere of 5% CO2. Cells were passaged every 3-4 days by reseeding to a concentration of 4-8×10^6/40 ml per 175 cm^2 flask. Cells were harvested for experiments by centrifugation at 1000 g for 3 min. Pelleted cells were washed once by resuspension into assay buffer (50 mM Tris HCl pH 7.4, 3 mM MnCl2, 0.02% BSA, […] bacitracin, […] chymostatin, 2 mM phosphoramidon, […] leupeptin) and repeating the centrifugation step before resuspending at a concentration of 2.5×10^6 cells/mL assay buffer. Cells ([…]) were incubated with [^125I]Bolton-Hunter substance P (0.05-0.1 nM) in the presence and absence of varying concentrations of test compounds for 50 min at 21° C. Non-specific binding (10% of the total binding observed under these conditions) was defined by […] [Sar^9, Met(02)^11] substance P. Reactions were terminated by rapid filtration under vacuum onto GF\C filters presoaked in 0.2% PEI for 1-2 h, using a Brandel cell harvester. Filters were washed with 6×1 ml ice-cold Tris HCl (50 mM, pH 7.4) and radioactivity bound determined using a gamma couter. Results were analyzed using iterative curve fitting procedures in RS1 or Graphpad Inplot.

Protein sequences, listed by entry. Tags and fused reporters are not part of them.
UniProt P25103, whole entry: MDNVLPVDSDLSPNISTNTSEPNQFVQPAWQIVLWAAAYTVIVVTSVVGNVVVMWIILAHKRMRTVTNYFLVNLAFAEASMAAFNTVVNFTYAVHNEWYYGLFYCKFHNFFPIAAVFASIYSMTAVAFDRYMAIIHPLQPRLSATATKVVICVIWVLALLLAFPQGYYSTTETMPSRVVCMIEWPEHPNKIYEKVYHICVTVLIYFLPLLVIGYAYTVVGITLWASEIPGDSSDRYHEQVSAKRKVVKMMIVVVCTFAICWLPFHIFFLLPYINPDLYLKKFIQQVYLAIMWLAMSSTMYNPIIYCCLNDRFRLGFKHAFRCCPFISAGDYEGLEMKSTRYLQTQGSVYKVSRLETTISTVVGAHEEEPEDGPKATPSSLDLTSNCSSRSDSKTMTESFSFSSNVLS

| SMILES | IC50 [nM] |
| --- | --- |
| CC(NC(=O)C(Cc1c[nH]c2ccccc12)NCC=Cc1ccco1)c1ccccc1 (centres unmarked) | > 10000 |
| CNS(=O)(=O)c1cc(CNC(Cc2c[nH]c3ccccc23)C(=O)NC(C)c2ccccc2)ccc1Cl (centres unmarked) | 490 |
